# Results: PubChem BioAssay AID1040 (The Scripps Research Institute Molecular Screening Center, 2008)
# Protein sequences, listed by entry. Tags and fused reporters are not part of them.
# UniProt P25929, whole entry: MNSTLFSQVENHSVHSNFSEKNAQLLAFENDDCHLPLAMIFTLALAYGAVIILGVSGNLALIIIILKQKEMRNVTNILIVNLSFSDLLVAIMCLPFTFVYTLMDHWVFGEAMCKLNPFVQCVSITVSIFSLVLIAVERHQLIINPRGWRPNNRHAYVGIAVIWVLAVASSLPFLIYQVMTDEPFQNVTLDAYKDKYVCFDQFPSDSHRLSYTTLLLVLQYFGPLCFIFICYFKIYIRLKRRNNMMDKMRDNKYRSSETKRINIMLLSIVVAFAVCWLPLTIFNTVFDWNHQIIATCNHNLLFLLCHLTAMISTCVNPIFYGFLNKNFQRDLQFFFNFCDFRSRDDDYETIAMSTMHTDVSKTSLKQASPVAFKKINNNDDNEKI
# The entries are a selection whose mix differs from that of the whole data set. Some tests of the compounds listed are not included; inactive here does not mean inactive elsewhere. Active and inactive are the calls of the source.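 Rule for the calls: active = inhibition above the campaign mean inhibition of all tested compounds plus 3 SD (cut at about 20% in these data); inactive = the rest.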
# Target: Neuropeptide Y receptor type 1 (Homo sapiens) (UniProt P25929)
# Assay: NPY-Y1 receptor antagonists, primary screen, cell-based (AID 1040);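 note: 0% = DMSO wells given NPY plus isoproterenol and 100% = isoproterenol alone without NPY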
# Conditions: HEK293-CNG Y1 cells, membrane potential fluorescence; at 3.6 µM; active compounds read high; NPY at EC95, then isoproterenol
row,Structure (SMILES),inhibition
1,CN(C)c1cccc(C(=O)NCC2(N(C)C)CCCCC2)c1,inactive: 5.76%
2,O=C(OC1CN2CCC1CC2)C(CO)(c1ccccc1)c1ccccc1 (centres undefined),inactive: -2.22%
3,COc1cccc(C(=O)NCC2(N3CCCCC3)CCCCC2)c1,inactive: 7.6%
4,CCN1CCCC(OC(=O)C2(O)c3ccccc3C=Cc3ccccc32)C1 (centres undefined),inactive: 3.3%
5,C=CCN1CCN(CCOC(=O)C(O)(c2ccccc2)c2ccccc2)CC1,inactive: -10.2%
6,CN(C)C1CCCC1OC(=O)C(O)(c1ccccc1)c1ccccc1 (centres undefined),inactive: 2.68%
7,Cc1ccccc1C(=O)NCC1(N2CCCCC2)CCCCC1,inactive: -0.75%
8,CC(C)N1C(=O)CC2(CCN(CCOC(=O)C(O)(c3ccccc3)c3ccccc3)CC2)C1=O,inactive: -0.72%
9,O=C(NCC1(N2CCCCC2)CCCCC1)c1cc([N+](=O)[O-])ccc1Cl,inactive: 2.57%
